# Apparent affinities of Ab-14 variants for a coronavirus HR2 peptide

All variants were tested on one target, the spike HR2 peptide PDVDLGDISGINAS (SARS-CoV-2).

Ab-14 is the parent antibody, in scFv form: VH, then the linker GGGGSGGGGSGGGGS, then VL. The heavy chain is unchanged in all variants.
VH: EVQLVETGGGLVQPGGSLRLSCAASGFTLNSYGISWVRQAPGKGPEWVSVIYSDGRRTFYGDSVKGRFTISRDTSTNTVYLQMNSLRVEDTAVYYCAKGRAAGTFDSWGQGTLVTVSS
VL: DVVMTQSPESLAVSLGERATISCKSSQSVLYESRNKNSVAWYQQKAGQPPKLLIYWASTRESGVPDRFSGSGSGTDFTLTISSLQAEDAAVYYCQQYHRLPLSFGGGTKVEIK

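The parent was found by panning a naive human phage display library on the peptide. Library AAYL50 holds single substitutions and randomly drawn double and triple substitutions in the CDRs. AlphaSeq pools MATa yeast showing the antibodies with MATalpha yeast showing the peptide. Mating (16 h, 30 °C) was followed by selection of diploids and sequencing of their barcodes. Read counts were normalised to the haploid input and turned into Kd by a linear fit to BCL2-family pairs of known affinity, for each replicate. Each pool was mated in three replicate cultures.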

Variants are written as CDR1, CDR2 and CDR3 of the light chain (limits as in the source). Parent: KSSQSVLYESRNKNSVA, WASTRES, QQYHRLPLS. Every variant below is changed at A57 of the VL (sequential numbering). Affinities are written as log10 Kd with Kd in nM; a lower number is a better binder. A mean of the replicates is given; it leaves out those without a signal. A pair that was not seen in any replicate is written "nd"; this usually means weak binding, but a binder can also be missed. For reference, the parent read 0.65 as the reference entry and 1.68 as a member of this library. As a blank, each scFv also met three strains without target: over library AAYL50, 18% of these pairings were detected, typically at 4.19 and seldom below 2.99.

For KSSQSVLYESRNKNSVA / WMSTRES / QQYHREPLD, the assay gave 3.48 (1 of 3 replicates). With KYSQQVLYESRNKNSVA / WESTRES / QQYHRLPLS the result was 3.35 (3 of 3 replicates). With KSSSSVLYESRNKNSVA / WDSTRES / QQYHRLPLC the result was 0.99 (3 of 3 replicates). The variant KSSQSVLYESRNKNSVA / WYEWRES / QQYHRLPLS gave nd (0 of 3 replicates). The variant KSSQSVLYESRNKFSVA / WMSTRES / QQYHRQPLS showed 2.45 (3 of 3 replicates). The variant KSSQSVLYESRNKNSVA / WWSTRCS / QKYHRLPLS gave nd (0 of 3 replicates).

The variant KSSQSVLYESRNKNSVA / WVPTRES / QQYHVLPLS showed 5.49 (1 of 3 replicates). The variant KSSQSVLYESRNKNSPA / WQSKRES / QQYHRLPLS gave nd (0 of 3 replicates). With KSSQSVLTYSRNKNSVA / WCSTRES / QQYHRLPLS the result was 3.38 (2 of 3 replicates). For KSSQSVLYESDNKNSVA / WFSTRES / QQNHRLPLS, the assay gave 0.72 (3 of 3 replicates). With KSSQSVLYESRNKNSVA / WSFTRER / QQYHRLPLS the result was 2.94 (3 of 3 replicates). With KSSQSVLYESRNKNSVA / WRSTRES / QQYHRLPLS the result was 2.32 (2 of 3 replicates).

The variant GASQSVLYESRNKNSVA / WPSTRES / QQYHRLPLS showed 4.32 (1 of 3 replicates). With KSSQSVSYESRNKNSVA / WHSYRES / QQYHRLPLS the result was nd (0 of 3 replicates). With KSSQSVLYESGNKTSVA / WCSTRES / QQYHRLPLS the result was nd (0 of 3 replicates). The variant KSSQSDLYESRNKNSVA / WMSTREP / QQYHRLPLS showed 1.03 (3 of 3 replicates). With KSSQSVLYESRNKNSVA / WWSTRES / QQPWRLPLS the result was nd (0 of 3 replicates). For KSSQSVLYESRNKNSVA / WVSTRES / QQYHRLPNS, the assay gave 4.02 (1 of 3 replicates).

For KSSQSVLYESMNKNSVA / WHSTKES / QQYHRLPLS, the assay gave nd (0 of 3 replicates). With KSSQSVEYESRNKNSVA / WRLTRES / QQYHRLPLS the result was nd (0 of 3 replicates). The variant KSSQSVLYESRNKNSVA / WISCRFS / QQYHRLPLS gave 4.53 (2 of 3 replicates). With KSSQSLLYWSRNKNSVA / WQSTRES / QQYHRLPLS the result was 2.07 (3 of 3 replicates). With KSSQSVLTESRNYNSVA / WLSTRES / QQYHRLPLS the result was 2.63 (3 of 3 replicates). The variant KSSSSVLYESRNKNSIA / WFSTRES / QQYHRLPLS showed 3.86 (1 of 3 replicates).

With KNSQSVLYESRNKNSVA / WVSTRES / QQYHRLPFS the result was 2.57 (3 of 3 replicates). With KSSQSVLYESRNKNSVH / WDFTRES / QQYHRLPLS the result was 4.13 (1 of 3 replicates). For KSSQSVLYESRNKNSQA / WNSTRES / QQYHRLPLS, the assay gave 4.86 (2 of 3 replicates). The variant KSSQSVLYESRNKNSVA / WCSTRES / QYYHRLPLS gave nd (0 of 3 replicates). For KSSQSVLYESRGKNSVA / WWMTRES / QQYHRLPLS, the assay gave 5.66 (1 of 3 replicates). With KSSQSVLYESRNENSVA / WYSTRES / QQYHRLPLP the result was 3.77 (2 of 3 replicates).

For KSSQSVLYESRNKNSYA / WLSTRES / QQYHRLPHS, the assay gave nd (0 of 3 replicates). The variant KSSQSVMYESRNKNTVA / WCSTRES / QQYHRLPLS gave nd (0 of 3 replicates). The variant KSSQSVLYESRNKNSVK / WTSTRES / QQYHCLPLS showed 4.15 (1 of 3 replicates). The variant YSSQSVLYESRNKNSYA / WLSTRES / QQYHRLPLS showed nd (0 of 3 replicates). With DSSQSVLYESRNKNSVA / WMSTRES / QQYHRLQLS the result was 3.40 (1 of 3 replicates). With KSSQSVLYESANKNSVA / WDSTKES / QQYHRLPLS the result was 1.37 (3 of 3 replicates).

For KSSQSVLYTSRNKNSVT / WTSTRES / QQYHRLPLS, the assay gave 2.38 (3 of 3 replicates). The variant KSSQSVLKEWRNKNSVA / WRSTRES / QQYHRLPLS showed 4.74 (2 of 3 replicates). With KSSQSVLYESRNKNSVA / WMSTRES / QQYHRLPLS the result was 3.92 (1 of 3 replicates). For KSSQSVLCESGNKNSVA / WNSTRES / QQYHRLPLS, the assay gave 2.48 (3 of 3 replicates). The variant KSSCSNLYESRNKNSVA / WNSTRES / QQYHRLPLS showed nd (0 of 3 replicates). The variant KSSQNVLYESRNKASVA / WCSTRES / QQYHRLPLS gave 2.60 (3 of 3 replicates).

For KSSQSVLYEMRNKNSVA / WVSTRED / QQYHRLPLS, the assay gave 4.66 (1 of 3 replicates). With KSSQMVLYESRNKNSSA / WESTRES / QQYHRLPLS the result was 3.95 (1 of 3 replicates). The variant KSSQSVLYESRSKNSVA / WTMTRES / QQYHRLPLS gave 1.30 (3 of 3 replicates). The variant KSSQNVLYESRNKNSVA / WFSTRES / QQYHLLPLS showed nd (0 of 3 replicates). The variant KSSQSVLWESRNKMSVA / WTSTRES / QQYHRLPLS showed 1.82 (3 of 3 replicates). With ESSQSVLYESRNKNSVA / TVSTRES / QQYHRLPLS the result was 3.10 (3 of 3 replicates).

Picked from the list: the 4 lowest averages where every replicate gave a value.

CDR-L1,CDR-L2,CDR-L3,"mean, log10 nM",detected
KSSQSVLYESDNKNSVA,WFSTRES,QQNHRLPLS,0.72,3/3
KSSSSVLYESRNKNSVA,WDSTRES,QQYHRLPLC,0.99,3/3
KSSQSDLYESRNKNSVA,WMSTREP,QQYHRLPLS,1.03,3/3
KSSQSVLYESRSKNSVA,WTMTRES,QQYHRLPLS,1.30,3/3

Data: MIT Lincoln Laboratory AlphaSeq set, Engelhart et al. 2022, doi:10.1038/s41597-022-01779-4, as distributed in FLAb.